From patent US20130197032A1, “[…] COMPOUNDS FOR THE TREATMENT OF NEUROLOGICAL AND […] DISORDERS” (A. CARLSSON RESEARCH AB, priority 2010, published 2013)

Amino acid sequences for entries named in this document (tags omitted).
UniProt P08908, whole entry: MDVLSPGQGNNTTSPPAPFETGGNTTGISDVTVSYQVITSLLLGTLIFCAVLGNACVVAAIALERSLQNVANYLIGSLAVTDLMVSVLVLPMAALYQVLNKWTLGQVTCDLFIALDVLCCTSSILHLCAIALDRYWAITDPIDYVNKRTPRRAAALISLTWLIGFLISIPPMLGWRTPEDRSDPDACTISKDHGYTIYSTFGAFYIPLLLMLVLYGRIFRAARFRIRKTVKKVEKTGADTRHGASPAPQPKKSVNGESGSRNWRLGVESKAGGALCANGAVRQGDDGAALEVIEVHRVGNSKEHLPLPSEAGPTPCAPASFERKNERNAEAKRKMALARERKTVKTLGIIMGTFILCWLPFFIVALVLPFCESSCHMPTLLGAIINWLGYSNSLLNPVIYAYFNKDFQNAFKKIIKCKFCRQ

Biological target: T1, human 5-HT1A receptor (Homo sapiens, UniProt P08908)
T1 construct: expressed in transfected cells; host or cells: NIH/3T3
Test: R-SAT assay 5-HT1A
Type: cell-based
Details: Table 3, 5-HT1A; percent response of reference 8-OH-DPAT

CCCN(CCC)C1CCc2cccc(O)c2C1 (stereo not shown) [8-OH-DPAT]
Eff (%): 100%
